To fix the notation:
B1: FPOX-20 (protein)
chain: MAPRANTKIIVVGGGGTMGSSTALHLLRAGYTPSNITVLDTYPIPSAQSAGYDLNKIFGISGANKPDLQLSLEAADMWKNDPLFKPFFHNVGQMDVSSTEEGIKKLRKRYQSLLRAGIGLEKTNFLLESEDEILAKAPHFTREQIKGWKGLFCGDGGWLAAAKAINAIGQFLKEQGVKFGFGEAGTFKKPLFADADEKTCIGVETVDGTKYYADKVVLAAGAWSSTLVDLEEQCVSKAWVFAHIQLTPAEAAAYKNTPVIYDGDYGFFIEPDENGIIKVCDEFPGFTHFKMHQPYGSPVPKLISVPRSHAKHPTDTYPHASEVTIKKAINRFLPRFNDKELFNRAMCWCTDTADANLLVCEHPRWKGFYLATGDSGHSFKLLPNIGKHVVELLEGRLESVFKDAWRWRPGSGDALKSRRAAPAKDLADMPGWRNEAKM
B2: FPOX-39 (protein)
chain: B1 chain with P66H, A75F, D95E, A355S
B3: FPOX-37 (protein)
chain: B1 chain with P66H, A75F, K105R, K108R
B4: FPOX-44 (protein)
chain: B1 chain with Y52H, P66H, A75F, K105R, K108R, A355S
B5: FPOX-38 (protein)
chain: B1 chain with P66H, A75F, A355S
B6: FPOX-36 (protein)
chain: B1 chain with P66H, A75F, K108R
B7: FPOX-42 (protein)
chain: B1 chain with P66H, A75F, K105R, K108R, A355S
B8: FPOX-18A (protein)
chain: B1 chain with S71C, A75L, K108M, R115D
B9: FPOX-43 (protein)
chain: B1 chain with S34T, P66H, A75F, K105R, K108R, A355S
B10: FPOX-35 (protein)
chain: B1 chain with I57V, P66H, A75F, D95E, K105R, K108R
B11: FPOX-32 (protein)
chain: B1 chain with P66H, A75F, D95E, K105R, K108R
B12: FPOX-18B (protein)
chain: B1 chain with A75L, K108M, R115D
B13: FPOX-41 (protein)
chain: B1 chain with P66H, A75F, K108R, A355S
B14: FPOX-40 (protein)
chain: B1 chain with P66H, A75F, K105R, A355S

The text below walks through data of patent publication US20160138073.

Where a chain is given by its changes, count along the chain named.

The first series has as its target T1, α-glycated hexapeptide Fru-Val-His-Leu-Thr-Pro-Glu.
T1 chain: VHLTPE
On to B1, for which the Activity ratio with respect to FPOX-15 (FPOX-15 defined as 1) was 7240, the Activity ratio with respect to FPOX-18 (FPOX-18 defined as 1) worked out at 38 and the Specific activity (mU/mg) turned out to be 22.9 mU/mg.

Regarding B2, the Activity ratio with respect to FPOX-15 (FPOX-15 defined as 1) stood at 19800 and the Activity ratio with respect to FPOX-19 (FPOX-19 defined as 1) is 3.6.

For B3, the Activity ratio with respect to FPOX-15 (FPOX-15 defined as 1) is 10600 and the Activity ratio with respect to FPOX-19 (FPOX-19 defined as 1) stood at 2.

In the case of B4, the Activity ratio with respect to FPOX-15 (FPOX-15 defined as 1) is 25500 and the Activity ratio with respect to FPOX-19 (FPOX-19 defined as 1) amounted to 4.7.

Take B5: the Activity ratio with respect to FPOX-15 (FPOX-15 defined as 1) is 22600 and the Activity ratio with respect to FPOX-19 (FPOX-19 defined as 1) was 4.2.

With B6, the Activity ratio with respect to FPOX-15 (FPOX-15 defined as 1) was determined as 19100 and the Activity ratio with respect to FPOX-19 (FPOX-19 defined as 1) was found to be 3.5.

Turning to B7, the Activity ratio with respect to FPOX-15 (FPOX-15 defined as 1) turned out to be 25500, the Activity ratio with respect to FPOX-19 (FPOX-19 defined as 1) turned out to be 4.7 and the Specific activity (mU/mg) came out at 92.1 mU/mg.

On to B8, for which the Activity ratio with respect to FPOX-15 (FPOX-15 defined as 1) was found to be 1140.

Consider B9, for which the Activity ratio with respect to FPOX-15 (FPOX-15 defined as 1) is 24800 and the Activity ratio with respect to FPOX-19 (FPOX-19 defined as 1) worked out at 4.6.

With B10, the Activity ratio with respect to FPOX-15 (FPOX-15 defined as 1) came to 12000 and the Activity ratio with respect to FPOX-19 (FPOX-19 defined as 1) was determined as 2.2.

Regarding B11, the Activity ratio with respect to FPOX-15 (FPOX-15 defined as 1) was 17700, the Activity ratio with respect to FPOX-19 (FPOX-19 defined as 1) amounted to 3.3 and the Specific activity (mU/mg) is 64.7 mU/mg.

With B12, the Activity ratio with respect to FPOX-15 (FPOX-15 defined as 1) came to 1540 and the Activity ratio with respect to FPOX-18 (FPOX-18 defined as 1) was 8.1.

Take B13: the Activity ratio with respect to FPOX-15 (FPOX-15 defined as 1) turned out to be 24800 and the Activity ratio with respect to FPOX-19 (FPOX-19 defined as 1) was determined as 4.6.

B14: the Activity ratio with respect to FPOX-15 (FPOX-15 defined as 1) is 21900 and the Activity ratio with respect to FPOX-19 (FPOX-19 defined as 1) was found to be 4.

In another series the target is hemoglobin A1c (in human hemocyte-derived hemolysate sample), P69905.
B1 registered a ΔAbs(reaction) (glycated hemoglobin oxidase activity) (absorbance, 660 nm/750 nm) of 0.08.

In the case of B7, the ΔAbs(reaction) (glycated hemoglobin oxidase activity) (absorbance, 660 nm/750 nm) amounted to 0.246.

The protein B8 yielded a ΔAbs(reaction) (glycated hemoglobin oxidase activity) (absorbance, 660 nm/750 nm) of 0.017.

In turn, B11 had a ΔAbs(reaction) (glycated hemoglobin oxidase activity) (absorbance, 660 nm/750 nm) of 0.235.

Turning to B12, the ΔAbs(reaction) (glycated hemoglobin oxidase activity) (absorbance, 660 nm/750 nm) worked out at 0.021.
